Results as given in patent US7135295B1, “Detection of small molecules by use of a piezoelectric sensor” (dated 2006).
Only a part of the results on these compounds is given; other tests are left out.

Key:
5B3 antibody = assay: ELISA binding / inhibition assay of 5B3 antibody with haptens
Procedure: Spleen cells of a mouse with the highest titre of binding antibodies (and specificity to TNT, see for detection details below) were fused with the NSO, murine myeloma cell line as described before (Eshhar, Monoclonal antibody strategy and techniques. In: Hybridoma in Biotechnology and Medicine, Springer, T., ed. Plenum Press, p. 1, 1985). Briefly, 10^8 spleen cells were fused with 2×10^7 NSO myeloma cells using 41% PEG for 2 mins. at 37° C. Following removal of PEG by dilution and centrifugation, cells were resuspended in DMEM supplemented with 10% horse serum and HAT selective medium and distributed into 7 microculture plates. […] (See binding and inhibition assays (1.4 and 1.5 below). From 672 wells with hybridoma growth 32 scored positive for TNP-BSA binding. Six out of these were inhibited by 10^−5 M TNT, out of which a hybridoma designated 5B3 was selected. The TNT-specific hybridomas were cloned and subcloned for 2–3 cycles and used to prepare ascites fluid which served as the source for purified antibodies.
Regular ELISA has been used to determine anti-TNT antibody activity. […] Reaction was stopped when sufficient color had been developed by the addition of 50 μl of 0.2 M citric acid and the OD at 620 nm was determined in ELISA plate reader. […]

IgG TTDA 5B3-Ab = assay: QCM displacement embodiment, IgG TTDA 5B3-Ab charged antigen monolayer
Source text: The sensing member is mounted in the cell, the cell volume is filled with a solution, e.g. 0.01 M phosphate buffer, pH 7.4 comprising also 0.1 M NaCl (“NaCl-containing PBS”). The sensing member is allowed to equilibrate until a constant frequency of the crystal is observed.
The sensing surface in accordance with this embodiment, where the neutralizing agent is an antibody, comprises an antigen-antibody monolayer. Electrode 160 may be provided, a priori with antibodies bound thereon, although alternatively, the antibody may be bound to the sensing surface in situ. In the latter case, an antibody solution, e.g. 50 μl of a 1 mg/ml antibody solution is injected into the cell and permitted to incubate with the electrode for a time to allow binding, e.g. 15 minutes. Association of the antibody to the electrode can be monitored by the decrease in the resonance frequency of the crystal (see FIG. 9 and the accompanying description below). The cell may then be rinsed with several cell volumes of a solution, e.g. a buffer solution, propelled by means of peristaltic pump 176. The electrode is then allowed to calibrate until the resonance frequency remains constant for a period of time.
Samples may then be injected into the cells. Detachment of the antibody from the monolayer is evidenced by a frequency increase of the crystal (see exemplary FIG. 10 and the accompanying description below). After each positive sample the cell is flushed with a buffer solution and allowed to re-equilibrate to reach a constant frequency.
An antigen monolayer electrode was treated for 15 mins. with the Ab. […] A decrease of about Δf=−100 Hz was observed. The charged electrode was rinsed for 3 mins with the buffer solution and its resonance frequency was stabilized.
50 ml of stock solution of 2,4-DNT, prepared as described under 3.4 was injected into the cell to yield the desired concentration.
The electrode was then rinsed for three mins. with the buffer solution and its frequency was re-stabilized. A sample of 2,4-DNT was injected again into the cell to yield the sum concentration of 6.25 ng/ml. […] The electrode was rinsed again and its frequency was stabilized. A 2,4-DNT sample was injected into the cell to yield a concentration of 312 pgr/ml.
An electrode of a sensing member was charged with Ab in an identical manner to that described under 3.5.
A TNT stock solution was prepared similarly to the manner of preparation of the 2,4-DNT stock solution in Example 3.5. A 50 ml sample of the TNT stock solution was injected into the cell to yield a concentration of 6.25 pgr/ml in the cell. […] After rinsing the cell and stabilization of the crystal frequency, a second sample of TNT was injected to the cell, yielding a concentration of 62.5 pgr/ml^−1. […]

## Cc1c([N+](=O)[O-])cc([N+](=O)[O-])cc1[N+](=O)[O-]
5B3 antibody; ELISA inhibition
  blocking of 5B3 binding to either TNP or DNS antigen: blocked by very low amounts
5B3 antibody; preincubation with 10^−5 M, hybridoma 5B3 among the six inhibited
  inhibition of hybridoma supernatant binding to TNP-BSA: inhibited
IgG TTDA 5B3-Ab; 6.25 pgr/ml (FIG. 13 curve a)
  crystal frequency increase Δf: 7 Hz
IgG TTDA 5B3-Ab; 6.25 pgr/ml, electrode recharged with Ab (FIG. 15)
  crystal frequency increase Δf: 18 Hz
IgG TTDA 5B3-Ab; 62.5 pgr/ml^−1, second sample (FIG. 13 curve b)
  crystal frequency increase Δf: 16 Hz
IgG TTDA 5B3-Ab; micro-cell, 100 pgr/ml in the cell, after 3 mins (FIG. 22)
  crystal frequency increase: about 15 Hz
